Broadly, the Cmax is the highest concentration seen after dosing. The half-life is the time in which the quantity being followed falls by half.

Read-outs that look alike come from different tables or passages of the source.

The values that follow come from doi:10.1101/2023.11.09.566408v1 (bioRxiv, 2023).

The format of the data set is in vivo, mice. Particulars: male, Swiss, mouse, plasma.

Under “iv, 5 μg/animal”, `CC[C@H](C)[C@H](NC(=O)[C@@H]1CCCN1C(=O)CNC(=O)[C@H](Cc1ccccc1)NC(=O)[C@H](CC(N)=O)NC(=O)[C@H](CC(N)=O)NC(=O)[C@H](CO)NC(=O)[C@H](CO)NC(=O)[C@H](Cc1c[nH]cn1)NC(=O)[C@@H](NC(=O)[C@H](CC(C)C)NC(=O)[C@H](Cc1ccccc1)NC(=O)[C@H](CC(N)=O)NC(=O)[C@H](C)NC(=O)[C@H](CC(C)C)NC(=O)[C@H](CCCNC(=N)N)NC(=O)[C@H](CCC(N)=O)NC(=O)[C@@H](NC(=O)[C@H](C)NC(=O)[C@@H]1CSSC[C@H](NC(=O)[C@@H](N)CCCCN)C(=O)N[C@@H](CC(N)=O)C(=O)N[C@@H]([C@@H](C)O)C(=O)N[C@@H](C)C(=O)N[C@@H]([C@@H](C)O)C(=O)N1)[C@@H](C)O)C(C)C)C(=O)N[C@@H](CC(C)C)C(=O)N1CCC[C@H]1C(=O)N1CCC[C@H]1C(=O)N[C@H](C(=O)N[C@@H](CC(N)=O)C(=O)N[C@H](C(=O)NCC(=O)N[C@@H](CO)C(=O)N[C@@H](CC(N)=O)C(=O)N[C@H](C(=O)N[C@@H](Cc1ccc(O)cc1)C(N)=O)[C@@H](C)O)C(C)C)[C@@H](C)O` [pramlintide] displayed a Cmax of approximately 3.7 nM and a half-life of 6.8 min. This compound also showed a Cmax (po, 100 ug) of 0.13 nM.
